Measured values reported in publication PMC3770802 (Cytokine, 2013).

Molecular target: T1, IFN-αR1/StFP (human, UniProt P17181 28-557)
T1 sequence (looked up): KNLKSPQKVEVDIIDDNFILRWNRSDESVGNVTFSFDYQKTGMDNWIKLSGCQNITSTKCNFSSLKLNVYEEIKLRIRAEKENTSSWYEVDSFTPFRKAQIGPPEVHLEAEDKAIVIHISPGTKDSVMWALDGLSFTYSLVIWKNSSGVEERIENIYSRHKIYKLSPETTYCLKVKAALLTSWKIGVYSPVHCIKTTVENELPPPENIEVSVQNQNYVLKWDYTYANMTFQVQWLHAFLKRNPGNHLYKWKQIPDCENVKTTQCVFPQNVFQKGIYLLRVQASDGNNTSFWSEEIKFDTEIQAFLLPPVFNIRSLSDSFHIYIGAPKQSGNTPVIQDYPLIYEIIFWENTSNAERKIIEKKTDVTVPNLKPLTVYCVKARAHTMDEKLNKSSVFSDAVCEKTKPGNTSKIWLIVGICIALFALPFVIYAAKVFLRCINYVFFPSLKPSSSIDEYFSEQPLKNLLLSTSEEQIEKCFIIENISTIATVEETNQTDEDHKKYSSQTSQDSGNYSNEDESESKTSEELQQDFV
Experiment: FRET or BRET

B1: Jak1/CiFP (enzyme, UniProt P23458 1-1154, looked up)
chain: MQYLNIKEDCNAMAFCAKMRSSKKTEVNLEAPEPGVEVIFYLSDREPLRLGSGEYTAEELCIRAAQACRISPLCHNLFALYDENTKLWYAPNRTITVDDKMSLRLHYRMRFYFTNWHGTNDNEQSVWRHSPKKQKNGYEKKKIPDATPLLDASSLEYLFAQGQYDLVKCLAPIRDPKTEQDGHDIENECLGMAVLAISHYAMMKKMQLPELPKDISYKRYIPETLNKSIRQRNLLTRMRINNVFKDFLKEFNNKTICDSSVSTHDLKVKYLATLETLTKHYGAEIFETSMLLISSENEMNWFHSNDGGNVLYYEVMVTGNLGIQWRHKPNVVSVEKEKNKLKRKKLENKHKKDEEKNKIREEWNNFSYFPEITHIVIKESVVSINKQDNKKMELKLSSHEEALSFVSLVDGYFRLTADAHHYLCTDVAPPLIVHNIQNGCHGPICTEYAINKLRQEGSEEGMYVLRWSCTDFDNILMTVTCFEKSEQVQGAQKQFKNFQIEVQKGRYSLHGSDRSFPSLGDLMSHLKKQILRTDNISFMLKRCCQPKPREISNLLVATKKAQEWQPVYPMSQLSFDRILKKDLVQGEHLGRGTRTHIYSGTLMDYKDDEGTSEEKKIKVILKVLDPSHRDISLAFFEAASMMRQVSHKHIVYLYGVCVRDVENIMVEEFVEGGPLDLFMHRKSDVLTTPWKFKVAKQLASALSYLEDKDLVHGNVCTKNLLLAREGIDSECGPFIKLSDPGIPITVLSRQECIERIPWIAPECVEDSKNLSVAADKWSFGTTLWEICYNGEIPLKDKTLIEKERFYESRCRPVTPSCKELADLMTRCMNYDPNQRPFFRAIMRDINKLEEQNPDIVSEKKPATEVDPTHFEKRFLKRIRDLGEGHFGKVELCRYDPEGDNTGEQVAVKSLKPESGGNHIADLKKEIEILRNLYHENIVKYKGICTEDGGNGIKLIMEFLPSGSLKEYLPKNKNKINLKQQLKYAVQICKGMDYLGSRQYVHRDLAARNVLVESEHQVKIGDFGLTKAIETDKEYYTVKDDRDSPVFWYAPECLMQSKFYIASDVWSFGVTLHELLTYCDSDSSPMALFLKMIGPTHGQMTVTRLVNTLKEGKRLPCPPNCPDEVYQLMRKCWEFQPSNRTSFQNLIEGFEALLK
- EC50* (relative): 300 pairs/cell
- EC50* (relative), rarely seen: 30 pairs/cell
